The subject of one assay is rat insulin I promoter. As to the kind of experiment: Rat insulin I promoter luciferase reporter (-410 INS-luc) in transfected INS-1 cells. The format is cell-based. Particulars: INS-1 cells cotransfected with pShh and -410 INS-luc; FIG. 19.
Assay [1] concerns -4.6 kb mouse IDX-1 promoter. As to the kind of experiment: Mouse IDX-1 promoter luciferase reporter (-4.6IDX-pGL3) in transfected INS-1 cells. The format is cell-based, rat. The conditions noted are these: 10 μM, 4 μg pSHH, FIG. 21. (In general: In a reporter assay the amount or activity of a reporter protein is the signal.)

SMILES strings stand for the structures.

`CC1=C2C[C@H]3[C@@H](CC=C4C[C@@H](O)CC[C@@]43C)[C@@H]2CC[C@]12O[C@@H]1C[C@H](C)CN[C@H]1[C@H]2C` [cyclopamine]: the “effect on Shh-mediated activation of the insulin promoter” value with rat insulin I promoter was “inhibit the Shh-mediated activation of the insulin promoter”. Also, the “effect on Shh-mediated activation of the IDX-1 promoter” value in assay [1] is on record as “decreases Shh-mediated activation of the IDX-1 promoter”.

The values above are taken from US7632812B2, “Methods to stimulate insulin production by pancreatic β-cells” (Massachusetts General Hospital, priority 1999, dated 2009).
